From patent US10189845B2, “4,6-substituted-pyrazolo[1,5-a]pyrazines as janus kinase inhibitors” (ARRAY BIOPHARMA INC., priority 2014, dated 2019)

Chains of the proteins cited; added tags and fusions are not shown. Lines headed by an entry give the natural chain unless they say otherwise; changes in a name come on top.
UniProt P52333: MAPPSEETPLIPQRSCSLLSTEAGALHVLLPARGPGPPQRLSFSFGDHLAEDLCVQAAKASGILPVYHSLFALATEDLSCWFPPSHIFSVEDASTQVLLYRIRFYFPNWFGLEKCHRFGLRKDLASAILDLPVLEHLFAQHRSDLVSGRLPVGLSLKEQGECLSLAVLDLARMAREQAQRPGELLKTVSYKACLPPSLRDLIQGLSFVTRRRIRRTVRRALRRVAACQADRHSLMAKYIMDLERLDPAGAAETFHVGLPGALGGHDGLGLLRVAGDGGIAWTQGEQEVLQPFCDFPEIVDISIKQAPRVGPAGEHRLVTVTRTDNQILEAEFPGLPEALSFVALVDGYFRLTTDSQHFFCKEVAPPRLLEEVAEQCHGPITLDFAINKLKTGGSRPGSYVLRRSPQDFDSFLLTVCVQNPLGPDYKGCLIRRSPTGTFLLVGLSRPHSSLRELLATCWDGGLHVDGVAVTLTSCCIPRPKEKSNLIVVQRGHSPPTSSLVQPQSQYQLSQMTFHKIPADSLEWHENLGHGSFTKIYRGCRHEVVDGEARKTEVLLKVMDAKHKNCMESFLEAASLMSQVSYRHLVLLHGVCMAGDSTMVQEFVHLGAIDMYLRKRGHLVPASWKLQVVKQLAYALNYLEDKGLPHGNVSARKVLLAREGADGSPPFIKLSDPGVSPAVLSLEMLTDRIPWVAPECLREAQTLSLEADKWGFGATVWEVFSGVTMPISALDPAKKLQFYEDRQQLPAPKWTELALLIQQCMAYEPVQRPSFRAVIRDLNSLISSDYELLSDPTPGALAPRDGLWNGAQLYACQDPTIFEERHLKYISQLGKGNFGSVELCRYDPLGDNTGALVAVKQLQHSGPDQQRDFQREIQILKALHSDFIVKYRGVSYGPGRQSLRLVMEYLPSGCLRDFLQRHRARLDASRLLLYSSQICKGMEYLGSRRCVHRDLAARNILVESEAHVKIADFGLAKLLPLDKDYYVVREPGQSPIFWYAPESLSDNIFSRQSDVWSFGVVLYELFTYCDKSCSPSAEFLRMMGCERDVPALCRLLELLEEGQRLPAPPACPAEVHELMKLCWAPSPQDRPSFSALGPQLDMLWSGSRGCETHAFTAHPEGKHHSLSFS
UniProt P23458: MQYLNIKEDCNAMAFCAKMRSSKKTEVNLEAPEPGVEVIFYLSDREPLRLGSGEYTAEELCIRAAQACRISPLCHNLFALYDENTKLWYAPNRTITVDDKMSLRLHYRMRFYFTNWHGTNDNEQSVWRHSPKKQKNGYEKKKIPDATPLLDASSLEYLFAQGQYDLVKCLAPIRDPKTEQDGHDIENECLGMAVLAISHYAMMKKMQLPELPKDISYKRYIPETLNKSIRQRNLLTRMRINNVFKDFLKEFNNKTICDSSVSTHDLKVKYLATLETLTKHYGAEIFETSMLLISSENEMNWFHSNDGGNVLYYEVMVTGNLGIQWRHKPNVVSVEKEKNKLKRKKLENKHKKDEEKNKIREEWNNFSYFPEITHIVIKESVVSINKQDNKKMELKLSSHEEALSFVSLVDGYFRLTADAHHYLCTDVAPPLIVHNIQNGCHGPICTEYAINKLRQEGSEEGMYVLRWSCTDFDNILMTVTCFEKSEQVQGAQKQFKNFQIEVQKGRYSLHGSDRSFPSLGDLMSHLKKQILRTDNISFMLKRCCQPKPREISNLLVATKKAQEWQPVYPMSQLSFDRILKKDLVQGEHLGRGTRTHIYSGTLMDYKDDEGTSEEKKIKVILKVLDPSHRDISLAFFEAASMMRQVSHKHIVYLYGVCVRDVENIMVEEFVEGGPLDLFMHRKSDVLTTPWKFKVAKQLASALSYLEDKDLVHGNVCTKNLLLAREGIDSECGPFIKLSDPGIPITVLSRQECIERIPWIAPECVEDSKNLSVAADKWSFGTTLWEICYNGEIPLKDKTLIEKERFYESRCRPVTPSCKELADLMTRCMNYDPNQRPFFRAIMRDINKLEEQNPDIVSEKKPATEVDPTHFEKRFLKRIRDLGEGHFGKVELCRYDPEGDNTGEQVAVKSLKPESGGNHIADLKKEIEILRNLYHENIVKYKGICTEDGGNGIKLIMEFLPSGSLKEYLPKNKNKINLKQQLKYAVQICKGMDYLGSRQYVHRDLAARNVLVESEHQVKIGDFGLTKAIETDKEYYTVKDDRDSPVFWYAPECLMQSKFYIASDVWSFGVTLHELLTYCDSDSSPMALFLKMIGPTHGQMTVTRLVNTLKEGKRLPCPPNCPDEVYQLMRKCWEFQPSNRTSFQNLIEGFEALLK

Legend:
JAK3 = JAK3 (Homo sapiens (Human), UniProt P52333); assay: JAK3 Inhibition Assay (Example D, Omnia kinase fluorescence peptide substrate assay); type: biochemical
Text: (§1) The assays described in Examples A, B, C and D for the determination of Tyk2, JAK1, JAK2 and JAK3 kinase activity, respectively, utilized the Omnia® Kinase fluorescence peptide substrate-based technology (Invitrogen). The specific components of the assay mixture are described in Examples A, B, C and D. In these assays, Mg^2+ is chelated upon phosphorylation of the Omnia peptide by the kinase to form a bridge between the chelation-enhanced fluorophore Sox and the phosphate, resulting in an increase in fluorescence emission at 485 nm when excited at […]. The reactions were therefore read at excitation 360 nm and emission was measured at 485 nm every 50 seconds for 45 minutes using a PerkinElmer EnVision Multilabel Plate Reader.
(§2) The final buffer conditions for Tyk2, JAK1, JAK2, and JAK3 assays were as follows: 25 mM HEPES, pH 7.4, 10 mM MgCl2, 0.01% Triton X-100 and 1 mM DTT.
(§3) Two-μL aliquots of these were transferred to a fresh plate for a ten-fold intermediate dilution with assay buffer. Five-μL aliquots of the diluted compounds were then transferred to 20-μL of assay mixtures described in Examples A, B, C and D for a final concentration of DMSO of 2%. […] For each plate, percent of control (POC) values were calculated for each well according to the following equation: […]
(§4) IC50's were estimated from the POC's using a standard 4-parameter logistic model: […]

JAK1 = JAK1 (Homo sapiens (Human), UniProt P23458); assay: JAK1 Inhibition Assay (Example B, Omnia kinase fluorescence peptide substrate assay); type: biochemical; details: JAK1 Enzyme IC50 1 mM ATP, averaged IC50 ranges
Text: as §1, §2, §3, §4

SMILES | IC50 (JAK3) | IC50 (JAK1)
CC[C@H](CC(F)(F)F)n1cc(-c2nc(-c3cnn(C[C@@H](O)CO)c3)cn3nccc23)cn1 (single isomer, unassigned) [Example 209] | 1000 to 10000 nM | 100 to 1000 nM
CCC(CC(F)(F)F)n1cc(-c2nc(-c3cnn(C[C@@H](O)CO)c3)cn3nccc23)cn1 (single isomer, unassigned) [Example 210] | 1000 to 10000 nM | 
CC(C)[C@H](C)n1cc(-c2nc(-c3cnn(C[C@@H](O)CO)c3)cn3nccc23)cn1 [Example 80, (R)-3-(4-(4-(1-((S)-3-methylbutan-2-yl)-1H-pyrazol-4-yl)pyrazolo[1,5-a]pyrazin-6-yl)-1H-pyrazol-1-yl)propane-1,2-diol] |  | 1000 to 10000 nM
